{"source": "paper PMC12408683", "about": "(Archives of Toxicology, 2025)", "key": {"HepG2-CYP1A2 cells": {"test_system": "HepG2-CYP1A2 cells", "conditions": "positive control 0.25 µM", "protocol": "Following the recovery time, the cells were detached, harvested by centrifugation (300 g, 5 min), and washed with PBS. […] The fluorescent dye was then activated by photolysis (60 W lightbulb, 30 cm spacing) for 20 min before addition of 9 mL PBS to remove unbound dye. […] 1.5 × 10^4 cells were analysed using the BD FACSDiva software (BD Biosciences, Heidelberg, Germany). A schematic overview of the gating strategy is provided in the supporting information, Fig. 3."}, "HepG2 cells [1]": {"test_system": "HepG2 cells", "conditions": "positive control 0.25 µM"}, "HepG2 cells [2]": {"test_system": "HepG2 cells", "conditions": "positive control", "protocol": "The CBMN assay was performed according to the OECD test guideline #487. Therefore, 2 × 10^5 cells were seeded in 3.5 cm dishes and allowed to adhere for 24 h. […] After the 24 h treatment, the medium was discarded and the cells were incubated with fresh medium, containing 6 µg/mL cytochalasin B as cytokinesis inhibitor. The cells were then left to grow for 72 h, allowing for 1.5–2 × cell cycles. Subsequently, the cells were rinsed with PBS and fixed with ice-cold methanol for 10 min at –20 °C. Cells were washed and embedded with Vectashield® containing DAPI (Vector Labs, Burlingame, CA, USA). The samples were analysed with a Zeiss Axio Observer 7 microscope equipped with an Axiocam 305 mono and a 63 × oil immersion objective (plan-apochromat 63x/1.40 DIC M27) using ZEN Software 3.2. 500 binucleated cells per sample were analysed for micronuclei formation.\nAs benchmark response (BMR) for all concentration–response curves (adducts, micronuclei), a 2.0-fold increase vs. solvent control was used (BMC100, critical effect size = 1). The determined BMC100 and the corresponding upper and lower boundary (BMCU and BMCL, respectively) of the 90% confidence interval (CI) were used for potency comparison."}}, "data": [{"smiles": "CO[C@@]12[C@H](COC(N)=O)C3=C(C(=O)C(C)=C(N)C3=O)N1C[C@@H]1N[C@@H]12", "note": "[MMC, mitomycin C, reference compound]", "values": [{"measurement": "MN induction vs. solvent control (flow cytometry)", "setting": "HepG2-CYP1A2 cells", "result": "ninefold"}, {"measurement": "MN increase vs. solvent control (flow cytometry)", "setting": "HepG2 cells [1]", "result": "roughly eightfold"}, {"measurement": "MN (CBMN)", "setting": "HepG2 cells [2]", "result": "robust increase in MN"}]}]}
